Legend:
Mus musculus [1] = organism: Mus musculus; details: Swiss Albino, 5 mg/kg
Mus musculus [2] = organism: Mus musculus; details: Swiss Albino, 5 mg/kg; remark: listed apart in the source
Mus musculus [3] = organism: Mus musculus; details: Swiss Albino, 0.1 mg/kg
Mus musculus [4] = organism: Mus musculus; details: Swiss Albino, 0.1 mg/kg; remark: listed apart in the source
Mus musculus [5] = organism: Mus musculus; details: Swiss Albino, 0.1 mg/kg; remark: listed apart in the source
Mus musculus [6] = organism: Mus musculus; details: Swiss Albino, 0.1 mg/kg; remark: listed apart in the source

Row | SMILES | deltaT (Mus musculus [1]) [°C] | deltaT (Mus musculus [2]) [°C] | deltaT (Mus musculus [3]) [°C] | deltaT (Mus musculus [4]) [°C] | deltaT (Mus musculus [5]) [°C] | deltaT (Mus musculus [6]) [°C]
1 | CCCN(CCC)C1CCc2cccc(O)c2C1 (stereo unspecified) | -0.1 | 0.2 |  |  |  | 
2 | COc1ccccc1N1CCN(CCN(C(=O)C2CCCCC2)c2ccccn2)CC1 [WAY-100,635] |  |  | 0.1 | 0.1 | -0.1 | -0.1

Source: ChEMBL document CHEMBL1139831, “The influence of modifications in imide fragment structure on 5-HT(1A) and 5-HT(7) receptor affinity and in vivo pharmacological properties of some new 1-(m-trifluoromethylphenyl)piperazines” (Bioorg Med Chem, 2007)
